This experiment in a line: Vibrio cholerae quorum sensing activators, luminescence (AID 686977). Particulars: V. cholerae quorum sensing reporter, 6 h, hits give high values; dose 50, dose unit µM unless noted.

The results in this text go back to PubChem BioAssay.

Some of the results follow. Potency and affinity values are given separately. Records with an inconclusive call do not appear. Calls of active or inactive are those of the source. How the calls were made is not given here.

In the case of `CP(=O)(Nc1ccccn1)Oc1ccccc1` (configuration not stated), the luminescence was inactive: 40.
For `C/C1=C2N=C(/C=C3N=C(/C(C)=C4\[N-][C@@](C)([C@@H]5N=C1[C@](C)(CCC(=O)NC[C@@H](C)OP(=O)([O-])O[C@H]1[C@@H](O)[C@@H](n6cnc7cc(C)c(C)cc76)O[C@@H]1CO)[C@H]5CC(N)=O)[C@@](C)(CC(N)=O)[C@@H]4CCC(N)=O)[C@@](C)(CC(N)=O)[C@@H]\3CCC(N)=O)C(C)(C)[C@@H]/2CCC(N)=O.[C-]#N.[Co+3]` the value was inactive: 40 [dose 10, dose unit µg/mL].
